The values below come from patent publication US5852187A, “Molecular cloning of the ovine pituitary growth hormone releasing hormone receptor” (priority 1996, dated 1998).

The target in this assay is T1, GHRH-R encoded by HAP 7 cDNA (Homo sapiens, UniProt Q02643).
T1 construct: expressed in transfected cells; host or cells: Cos-1 cells (membranes), pCDM8 vector
T1 sequence (Q02643 23-423): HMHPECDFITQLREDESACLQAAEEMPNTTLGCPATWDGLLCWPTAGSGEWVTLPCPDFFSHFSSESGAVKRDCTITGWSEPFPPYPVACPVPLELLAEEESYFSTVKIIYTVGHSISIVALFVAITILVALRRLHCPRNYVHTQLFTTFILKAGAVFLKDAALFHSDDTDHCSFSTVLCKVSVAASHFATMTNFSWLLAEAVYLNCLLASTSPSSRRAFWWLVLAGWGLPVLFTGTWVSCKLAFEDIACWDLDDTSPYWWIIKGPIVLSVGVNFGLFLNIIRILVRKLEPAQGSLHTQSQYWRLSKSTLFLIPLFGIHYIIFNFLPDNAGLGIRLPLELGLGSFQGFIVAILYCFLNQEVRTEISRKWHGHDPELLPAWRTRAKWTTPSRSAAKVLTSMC
Briefly: Iodinated GHRH binding to COS cell membranes transfected with pCDM8 containing HAP 7 cDNA. As to conditions: HAP 7 transfected COS cell membranes, FIG. 16; read-out: Ki, competition for iodinated GHRH binding.

Regarding `CC[C@H](C)[C@H](NC(=O)CNC(=O)[C@H](CC(=O)O)NC(=O)[C@H](CO)NC(=O)[C@@H](N)Cc1c[nH]cn1)C(=O)N[C@@H](Cc1ccccc1)C(=O)N[C@H](C(=O)N[C@@H](CC(=O)O)C(=O)N[C@@H](CO)C(=O)N[C@@H](Cc1ccc(O)cc1)C(=O)N[C@@H](CO)C(=O)N[C@@H](CCCNC(=N)N)C(=O)N[C@@H](Cc1ccc(O)cc1)C(=O)N[C@@H](CCCNC(=N)N)C(=O)N[C@@H](CCCCN)C(=O)N[C@@H](CCC(N)=O)C(=O)N[C@@H](CCSC)C(=O)N[C@@H](C)C(=O)N[C@H](C(=O)N[C@@H](CCCCN)C(=O)N[C@@H](CCCCN)C(=O)N[C@@H](Cc1ccc(O)cc1)C(=O)N[C@@H](CC(C)C)C(=O)N[C@@H](C)C(=O)N[C@@H](C)C(=O)N[C@H](C(=O)N[C@@H](CC(C)C)C(=O)NCC(=O)N[C@@H](CCCCN)C(=O)N[C@@H](CCCNC(=N)N)C(=O)N[C@@H](Cc1ccc(O)cc1)C(=O)N[C@@H](CCCCN)C(=O)N[C@@H](CCC(N)=O)C(=O)N[C@@H](CCCNC(=N)N)C(=O)N[C@H](C(=O)N[C@@H](CCCCN)C(=O)N[C@@H](CC(N)=O)C(=O)N[C@@H](CCCCN)C(N)=O)C(C)C)C(C)C)C(C)C)[C@@H](C)O` [PACAP, pituitary adenylate cyclase activating peptide], the inhibitory constant (Ki) (commonly a measure of affinity in units of concentration, obtained from inhibition or displacement) was about 30 nM.
